# Measured affinities in a library of Ab-14 light chain variants

Binding partner: SARS-CoV-2 spike HR2 peptide, sequence PDVDLGDISGINAS.

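These sequences belong to a second round, designed from the earlier measurements on random variants of the parent. Their group label is 14L_En_Gibbs (En: ensemble of fine-tuned language models; Gibbs: Gibbs sampling). Affinity was read by AlphaSeq, a pooled yeast mating assay with surface-displayed partners. Pairs that bind mate more often; barcode pairs of the diploids are counted by sequencing. The ratio of observed to expected reads was calibrated, replicate by replicate, on BCL2-family standards whose Kd was known from biolayer interferometry. The assay was run in six technical replicates.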

The variants keep the heavy chain, the linker and the frameworks of Ab-14 (scFv order VH, the linker GGGGSGGGGSGGGGS, VL).
VH: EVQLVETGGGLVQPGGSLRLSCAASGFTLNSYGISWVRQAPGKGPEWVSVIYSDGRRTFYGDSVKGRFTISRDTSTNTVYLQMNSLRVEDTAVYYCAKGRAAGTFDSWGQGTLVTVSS
VL: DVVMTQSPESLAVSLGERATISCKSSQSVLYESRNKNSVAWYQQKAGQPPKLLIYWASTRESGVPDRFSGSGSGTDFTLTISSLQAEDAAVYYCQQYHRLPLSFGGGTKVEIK

The whole VL of each variant is written out. Scale: log10 of Kd in nM, estimated from mating counts; low values are strong binders. Averages over replicates are reported, and they cover detected replicates only. "nd" marks a missing value. The strain was present, yet no cells mated with the target were sequenced in that replicate, which points to weak or no binding. Values of this round are not directly comparable with the first-round values of the same sequences. The parent sequence was in this pool as ten entries: three were never detected, three once, and four in most replicates, with averages from 0.34 to 2.37. The authors averaged sequences with at least three values out of six and counted those with two or fewer as poor binders. As a blank, each scFv also met three strains without target: over all light chain designs, 4% of these pairings were detected, typically at 2.64 and seldom below 1.59. The control count says in how many pairings with the empty strains this scFv gave a signal, with their mean in brackets.

VL	log10 Kd (nM) by replicate	log10 Kd (nM), mean	empty controls
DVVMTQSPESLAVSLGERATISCKLAMHMEMNARTNHHIAWYQQKAGQPPKLLIYEANLKPSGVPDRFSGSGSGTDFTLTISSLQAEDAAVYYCQQYNRLPFSFGGGTKVEIK	0.67 / 0.43 / 0.95 / 0.55 / 0.81 / 0.61	0.67	3/18 (3.26)
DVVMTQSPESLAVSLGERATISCASDHTEGSGKNADANVAWYQQKAGQPPKLLIYGDEQRAYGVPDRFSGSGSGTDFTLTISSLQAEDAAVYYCQQYHHLPLSFGGGTKVEIK	1.26 / 1.34 / 0.51 / 1.26 / 0.26 / 0.99	0.94	3/18 (2.26)
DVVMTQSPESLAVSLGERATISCNVKAMLNMWARDIHNVAWYQQKAGQPPKLLIYEADERASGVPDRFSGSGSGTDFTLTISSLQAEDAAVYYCQQYSRLPLGFGGGTKVEIK	0.50 / 0.32 / 0.19 / 0.14 / 0.23 / 0.46	0.30	1/18 (2.77)
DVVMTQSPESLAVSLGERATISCVLGQNCSEEEMYCASIAWYQQKAGQPPKLLIYDAQHREAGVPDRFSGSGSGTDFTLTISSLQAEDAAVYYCQQYYRLPFVFGGGTKVEIK	1.62 / 1.58 / 1.85 / 1.42 / 1.89 / 1.90	1.71	1/18 (2.56)
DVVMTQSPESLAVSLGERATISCNLPMKELGMSWNVNNVAWYQQKAGQPPKLLIYDSENRMKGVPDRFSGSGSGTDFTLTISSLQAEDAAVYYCQQYSRLPLMFGGGTKVEIK	1.10 / 0.73 / 0.59 / 0.48 / 0.84 / 0.42	0.69	0/18
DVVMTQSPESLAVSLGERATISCKLMMFMQGIGCMKNNIAWYQQKAGQPPKLLIYNLKEVATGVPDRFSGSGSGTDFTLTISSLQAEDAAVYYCQQYAQLPLVFGGGTKVEIK	nd / nd / nd / 2.52 / nd / nd	2.52	1/18 (1.47)
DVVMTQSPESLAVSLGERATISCKVVKAKSEGDYHAANVAWYQQKAGQPPKLLIYNANKASDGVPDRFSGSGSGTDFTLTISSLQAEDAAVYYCQQYYRLPLAFGGGTKVEIK	1.26 / 0.76 / 0.36 / 0.45 / 0.61 / 0.38	0.64	2/18 (2.48)
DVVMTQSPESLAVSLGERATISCTLHANIQYGGIMWSSIAWYQQKAGQPPKLLIYGNVQRANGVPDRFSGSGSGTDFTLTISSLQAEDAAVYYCQQYARLPLSFGGGTKVEIK	1.29 / 0.85 / 1.39 / 1.19 / 1.14 / 1.02	1.15	1/18 (2.96)
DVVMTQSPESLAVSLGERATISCNMQMQQDRMQDAKQNIAWYQQKAGQPPKLLIYGVDMRETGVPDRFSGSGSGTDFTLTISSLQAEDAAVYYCQQYFRLPFLFGGGTKVEIK	0.12 / 0.00 / 0.04 / -0.11 / 0.01 / 0.09	0.03	1/18 (3.32)
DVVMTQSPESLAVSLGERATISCNITQQGDAMGDQRNNVAWYQQKAGQPPKLLIYNVETLEHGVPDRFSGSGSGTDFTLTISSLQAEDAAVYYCQQYAHLPLLFGGGTKVEIK	2.17 / 1.70 / 2.28 / 1.27 / 1.12 / 2.28	1.80	0/18
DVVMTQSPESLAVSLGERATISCSLEAFEYQIMKDLNNIAWYQQKAGQPPKLLIYNTQTRVNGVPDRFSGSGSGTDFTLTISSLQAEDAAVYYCQQYMRLPFMFGGGTKVEIK	0.20 / 0.10 / 0.02 / -0.17 / -0.04 / 0.21	0.05	0/18
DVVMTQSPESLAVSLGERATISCDFALDQDSMGDAKNSIAWYQQKAGQPPKLLIYDRNTKAHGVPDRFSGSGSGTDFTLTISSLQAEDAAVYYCQQYSRLPLVFGGGTKVEIK	0.94 / 0.58 / 0.05 / 0.40 / 0.86 / 0.50	0.55	1/18 (3.17)
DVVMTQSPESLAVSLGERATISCNMNVGLNFGKNQEQAIAWYQQKAGQPPKLLIYEVEDRESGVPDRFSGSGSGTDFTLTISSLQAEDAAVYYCQQYARLPLTFGGGTKVEIK	nd / 3.43 / 1.94 / 1.52 / 1.73 / 2.24	2.17	0/18
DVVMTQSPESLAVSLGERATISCKEQNYSLYMGGYDQNIAWYQQKAGQPPKLLIYNVSLRCEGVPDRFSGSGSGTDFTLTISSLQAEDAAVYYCQQYFMLPLTFGGGTKVEIK	2.64 / 2.16 / 1.76 / 1.38 / 1.61 / 2.29	1.97	1/18 (2.69)

2 of these entries, quoted again:

VL	log10 Kd (nM) by replicate	log10 Kd (nM), mean	empty controls
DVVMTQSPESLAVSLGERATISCNLPMKELGMSWNVNNVAWYQQKAGQPPKLLIYDSENRMKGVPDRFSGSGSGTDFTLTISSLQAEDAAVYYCQQYSRLPLMFGGGTKVEIK	1.10 / 0.73 / 0.59 / 0.48 / 0.84 / 0.42	0.69	0/18
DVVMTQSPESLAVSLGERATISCKLAMHMEMNARTNHHIAWYQQKAGQPPKLLIYEANLKPSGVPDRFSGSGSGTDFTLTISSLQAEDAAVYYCQQYNRLPFSFGGGTKVEIK	0.67 / 0.43 / 0.95 / 0.55 / 0.81 / 0.61	0.67	3/18 (3.26)

Data: MIT Lincoln Laboratory AlphaSeq set, Li et al. 2023, doi:10.1038/s41467-023-39022-2, as distributed in FLAb.